Literature values as cited in patent publication US20080096915A1, “COMPOSITIONS FOR THE TREATMENT OF METABOLIC DISORDERS” (Greenberg Traurig LLP, priority 2005, published 2008).

Conditions: in vivo

In the case of CN(C)C(=N)N=C(N)N [Metformin], the “binding to plasma proteins” value is listed as “does not bind to plasma proteins”.
